Legend:
[1] = Cardiotoxicity and general toxicity as stated in the text; conditions: in vivo
[2] = Anesthetic activity/potency comparison; conditions: in vivo
in vivo = conditions: mouse, iv

CCCN1CCCC[C@H]1C(=O)Nc1c(C)cccc1C [3 L, L-N-n-propylpipecolic acid-2,6-xylidide]
toxicity relative to Bupivacaine [1]: much less toxic
activity relative to R-Bupivacaine [2]: double the activity of R-Bupivacaine

CCCN1CCCCC1C(=O)Nc1c(C)cccc1C (stereo not drawn) [3 R, N--n-propylpipecolic acid 2,6-xylidide]
LD50 (in vivo): 13.6 mg/kg
